The target in this assay is T1, Disintegrin and metalloproteinase domain-containing protein 10 (Homo sapiens, UniProt O14672).
T1 sequence (O14672 whole entry): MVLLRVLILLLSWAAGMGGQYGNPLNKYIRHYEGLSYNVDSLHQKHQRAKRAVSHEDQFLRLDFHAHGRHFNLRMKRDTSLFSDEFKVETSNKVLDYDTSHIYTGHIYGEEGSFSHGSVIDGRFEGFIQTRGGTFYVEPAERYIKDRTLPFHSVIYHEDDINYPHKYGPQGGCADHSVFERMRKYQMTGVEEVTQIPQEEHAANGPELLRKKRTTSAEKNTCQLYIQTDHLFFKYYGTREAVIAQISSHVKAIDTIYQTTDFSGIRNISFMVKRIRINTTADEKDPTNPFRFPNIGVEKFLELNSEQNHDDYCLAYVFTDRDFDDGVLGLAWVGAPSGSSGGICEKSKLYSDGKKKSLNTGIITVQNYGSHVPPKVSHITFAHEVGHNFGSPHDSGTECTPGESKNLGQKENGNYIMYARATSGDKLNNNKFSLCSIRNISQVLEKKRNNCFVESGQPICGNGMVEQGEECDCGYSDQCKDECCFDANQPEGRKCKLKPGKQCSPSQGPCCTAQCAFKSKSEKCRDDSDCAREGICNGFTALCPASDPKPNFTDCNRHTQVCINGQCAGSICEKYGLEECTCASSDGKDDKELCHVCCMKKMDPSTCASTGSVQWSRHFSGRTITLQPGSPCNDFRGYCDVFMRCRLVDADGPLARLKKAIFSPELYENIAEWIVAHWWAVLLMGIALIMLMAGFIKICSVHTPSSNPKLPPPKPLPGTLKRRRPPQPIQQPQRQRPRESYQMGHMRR
Briefly: Inhibition of ADAM10.

SMILES strings stand for the structures.

The term Ki denotes the equilibrium dissociation constant of an inhibitor or competing ligand from its target. A high value points to lower affinity.

As to `O=C(N[C@@H]1CCOC[C@@H]1C(=O)NO)c1ccc(Cn2c(C(F)(F)F)nc3ccccc32)cc1`, the Ki is more than 10 µM.

These data come from ChEMBL document CHEMBL1141492, “Potent, exceptionally selective, orally bioavailable inhibitors of TNF-alpha Converting Enzyme (TACE): novel 2-substituted-1H-benzo[d]imidazol-1-yl)methyl)benzamide P1' substituents” (Bioorg Med Chem Lett, 2008).
